Consider one compound from patent US11365199B2, “Pyrazole compounds as modulators of FSHR and uses thereof” (Merck Patent GmbH, priority 2013, dated 2022).

Protein sequences, listed by entry. Tags and fused reporters are not part of them. Residues count along the entry.
UniProt P23945, 18-695 limits assumed: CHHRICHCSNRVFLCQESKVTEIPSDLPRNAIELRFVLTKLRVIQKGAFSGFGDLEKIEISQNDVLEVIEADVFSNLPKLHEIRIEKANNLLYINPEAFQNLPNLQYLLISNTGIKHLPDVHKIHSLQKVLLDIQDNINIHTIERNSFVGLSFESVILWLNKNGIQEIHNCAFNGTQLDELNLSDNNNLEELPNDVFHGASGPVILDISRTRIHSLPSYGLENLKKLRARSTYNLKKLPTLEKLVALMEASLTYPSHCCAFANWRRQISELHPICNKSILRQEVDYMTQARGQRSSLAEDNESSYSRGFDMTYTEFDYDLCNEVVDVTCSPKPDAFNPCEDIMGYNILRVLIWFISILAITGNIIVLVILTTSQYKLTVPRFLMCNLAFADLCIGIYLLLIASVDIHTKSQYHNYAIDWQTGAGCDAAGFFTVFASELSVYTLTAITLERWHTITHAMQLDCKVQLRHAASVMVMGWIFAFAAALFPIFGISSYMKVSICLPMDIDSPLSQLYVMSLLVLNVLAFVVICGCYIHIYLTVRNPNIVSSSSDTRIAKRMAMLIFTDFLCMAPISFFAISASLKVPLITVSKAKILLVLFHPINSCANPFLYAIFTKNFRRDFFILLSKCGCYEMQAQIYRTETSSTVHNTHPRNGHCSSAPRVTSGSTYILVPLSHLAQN

This assay deals with FSHR (Homo sapiens, UniProt P23945). Briefly: EC50 of cyclic AMP production in CHO FSHR cells + EC20 FSH (Assay A). To be noted: read-out: Assay A: EC50 of cyclic AMP production, cAMP HTRF. In kind it is cell-based. The method, then: EC50 of Cyclic AMP Production in CHO FSHR Cells+EC20 FSH (Assay A)
2500 Cho-FSHR-LUC-1-1-43 cells were plated per well in 5 μl of phenol red free DMEM/F12+1% FBS. Cells were plated in 384 well, solid white low volume plates (Greiner 784075) by Multidrop. Cells were assayed by adding 100 μl of 2×EC20 FSH/IBMX in DMEM/F12+0.1% BSA) by Multidrop to 2 μl of test compound stamped in 384 well plates (compounds are diluted 1:50). The final FSH concentration was […], and the final IBMX concentration was 200 μM. The compound plate map was as follows: Column 1: 2 μl of DMSO; Column 2: 2 μl of DMSO; Columns 3-12 and 13-24: 2 μl of test compound, diluted 1:4 in 100% DMSO, or 2 μl of FSH, diluted 1:4 in DMEM/F12+0.1% BSA. The starting concentration for FSH was 50 nM (final concentration was 0.5 nM). Furthermore, Column 23 contained 2 μl of EC100 FSH reference (100×) (diluted in DMEM/F12+0.1% BSA) at a final concentration of 0.5 nM, and Column 24 contained 2 μl of 1 mM AS707664/2 reference compound 2. 5 μl of compound+EC20 FSH mixture were transferred to cell plates (1:2 dilution into 5 μl of cell media) The plates were incubated at 37° C. for 1 h. […] The plates were read on Envision using the cAMP HTRF—low volume 384 well protocol. The readout was the calculated fluorescence ratio (665 nm/620 nm). […]
(TR-FRET usually uses a lanthanide donor and a delayed reading to cut background.)

The structures appear in SMILES notation. pEC50: −log10 of the molar value.

With `[2H]C([2H])([2H])N(C(=O)c1nn(-c2ccsc2)c2c1COc1cc(OC)c(-c3ccn(C)n3)cc1-2)C(C)(CO)CO`, the pEC50 was 5.30 to 6.00.

As usually defined, the pEC50 is −log10 of the EC50, conventionally taken in molar units.
